Earlier results, collected in patent US6693094B2, “Biguanide and sulfonylurea formulations for the prevention and treatment of insulin resistance and type 2 diabetes mellitus” (Chrono RX LLC, priority 2001, dated 2004).

Conditions: in vivo

- excretion: excreted unchanged in the urine
SMILES: CN(C)C(=N)N=C(N)N [Metformin, metformin]
